For this assay, the target named is hKv1.5 potassium channel (Homo sapiens, UniProt P22460). As to the kind of experiment: Whole-cell patch clamp assay on HEK 293 cells stably expressing hKv1.5. The note with it: read-out: hKv1.5 IC50, HEK 293 cells expressing hKv1.5, 25 °C, mean ± SD. A general note: Patch clamp records ionic current or voltage across a cell membrane.

The chains behind the UniProt entries cited, without tags or fusion partners.
UniProt P22460, whole entry: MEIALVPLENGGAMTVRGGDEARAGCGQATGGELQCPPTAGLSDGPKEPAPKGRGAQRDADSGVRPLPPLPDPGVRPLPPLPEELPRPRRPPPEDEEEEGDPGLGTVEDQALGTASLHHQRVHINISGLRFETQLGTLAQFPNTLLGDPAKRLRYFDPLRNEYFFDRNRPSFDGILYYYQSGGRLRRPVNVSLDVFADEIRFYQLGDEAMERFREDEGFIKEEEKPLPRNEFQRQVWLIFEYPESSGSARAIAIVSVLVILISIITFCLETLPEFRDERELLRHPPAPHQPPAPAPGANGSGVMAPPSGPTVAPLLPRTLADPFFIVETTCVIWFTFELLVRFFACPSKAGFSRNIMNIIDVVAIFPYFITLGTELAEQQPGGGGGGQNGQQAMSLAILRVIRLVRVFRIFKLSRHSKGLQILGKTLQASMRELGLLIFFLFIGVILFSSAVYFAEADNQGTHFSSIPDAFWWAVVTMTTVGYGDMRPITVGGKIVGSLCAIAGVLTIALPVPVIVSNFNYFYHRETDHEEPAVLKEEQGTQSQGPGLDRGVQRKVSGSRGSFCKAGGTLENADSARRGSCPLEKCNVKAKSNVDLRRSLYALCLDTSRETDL

In general, IC50 refers to the concentration that inhibits the measured activity by half.

Some compounds may have been tested in ways that are not shown here.

Take `COc1ccc(NC2CCN(Cc3nc4ccccc4o3)CC2)cc1`: the IC50 was determined as 1570 nM.

The values above are taken from PMC8757610, “Design, synthesis, and biological evaluation of arylmethylpiperidines as Kv1.5 potassium channel inhibitors” (Journal of Enzyme Inhibition and Medicinal Chemistry, 2022).
